Compounds with a hit are over-represented: about 4.2% of the library has one in this group of screens.
MC4R antagonist: antagonists of human melanocortin 4 receptor (MC4R); P32245; AID 540295; MC4R-expressing cells, MTII-stimulated cAMP, LANCE TR-FRET; inhibition, % at 6.5 µM; actives 0.48% (n = 360,000);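 active = inhibition above its plate's cutoff, the mean of tested wells on that plate plus 3 SD, cut at about 29% in these data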
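system = U2OS cells with stable human MC4R expression | also added = Melanotan II challenge after compound preincubation | dosing = one concentration, 6.5 µM nominal | incubation = compound 30 min, challenge 1 h, detection 1 h | measured by = TR-FRET with Eu-cAMP and labeled anti-cAMP, 671 nm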
HDAC3 inhib: blocks human histone deacetylase 3; recombinant HDAC3, fluorogenic peptide/trypsin coupled, fluorescence; actives 0.15% (n = 320,000); inhibition, % at 8.3 µM; AID 2718; O15379; in the data active = inhibition above about 26%, passing the limit was not always enough
MC4R barr agon: human MC4R agonism via beta-arrestin. U2OS MC4R beta-arrestin complementation, luminescence; percent of melanotan II response, DMSO zero. activation, % at 8.9 µM. AID 540308. P32245. actives 0.98% (n = 360,000);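 active = activation above a per-plate cutoff, the mean activation of sample wells on that plate plus 3 SD, cut at about 8% in these data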
UUG fidelity: alters start codon recognition fidelity in yeast. S. cerevisiae UUG-firefly luciferase reporter, luminescence/redox ratio. activity score, % at 18.7 µM. 0.13% of 350,000 active. AID 602363;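 active = replicate mean at a twofold rise or more, about +100% in these data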;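 also: firefly luciferase made from a UUG start codon reports start codon fidelity; reporter light over untreated wells divided by growth signal over untreated wells; some hits fall short of that in this replicate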
NALP1 inh: NALP1 inhibition; S. cerevisiae NALP1/ASC/caspase-1 growth, X-gal OD620, 72 h; inhibition, % at 10 µM; actives 0.61% (n = 280,000); in the data active = inhibition mostly above about 24%, no sharp cut-off; inactive = mostly below about 32%
ALR H2O2 inh: human ALR oxidase inhibition via reduced H2O2. P55789. purified ALR, DTT oxidation, H2O2 HRP-luminol luminescence. inhibition, % (no concentration beside the values). 290,000 tested, 3.8% active. AID 485317;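 active = mean and each replicate at 75% or more; inconclusive = only one of the two met; inactive = neither met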;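 also: stock transfer was 7.5 nL into about 7.5 µL; 0% = neutral wells and 100% = wells with inactivated enzyme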
MC4R barr ag: human MC4R beta-arrestin agonism confirmation | shares compounds with MC4R barr agon | U2OS MC4R beta-arrestin recruitment, luminescence; scaled DMSO 0%, Melanotan II 100% | activation, % at 8.9 µM | actives 31% (n = 2,400) | AID 602192;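 active = mean activation across replicates above the hit cutoff set in the earlier primary screen, cut at about 8% in these data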
MOR DOR agonist: OPRM1-OPRD1 heterodimer agonism counter-screen | activation, % at 9.2 µM | U2OS PathHunter beta-arrestin, beta-gal luminescence; percent of deltorphin B response, DMSO zero | actives 5.8% (n = 2,400) | shares compounds with MC4R barr agon;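 active = mean activation across replicates exceeds the hit threshold derived in the earlier primary screen, cut at about 18% in these data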
Each line names hits and unclear results; the compound was inactive in the other large screens (follow-up assays come after a bar, where they were run); ! = not active in a repeat.

C[C@@H]1CN([C@H](C)CO)C(=O)c2cccc(NS(=O)(=O)c3ccccc3)c2O[C@H]1CN(C)Cc1ccc(-c2ccccc2)cc1	none (no result: MC4R antagonist, HDAC3 inhib, MC4R barr agon, NALP1 inh, ALR H2O2 inh)
C[C@H](CO)N1C[C@H](C)[C@@H](CN(C)C(=O)NC2CCCCC2)OCCCC[C@H](C)Oc2ccc(NS(=O)(=O)c3cccs3)cc2C1=O	none (no result: MC4R antagonist, HDAC3 inhib, MC4R barr agon, NALP1 inh, ALR H2O2 inh)
COc1cccc(OCC(=O)NN=C2c3ccccc3-c3ccccc32)c1	MC4R barr agon 64.9 | MC4R barr ag inactive | MOR DOR agonist inactive
COc1ccc2[nH]c3c(C)c4ccncc4c(C)c3c2c1	MC4R barr agon 13.7, NALP1 inh 55.3 | MC4R barr ag 28.1 | MOR DOR agonist inactive
COCCNC(=O)c1ccc(-n2c(SCc3cc(F)ccc3F)nc3ccccc3c2=O)cc1	MC4R barr agon 12.4 | MC4R barr ag 8.3 | MOR DOR agonist inactive
CCOC(=O)CSc1nc2ccccc2c(=O)n1-c1ccc(C(=O)NCCOC)cc1	none
Cc1ccc(C)c(OCCC(=O)OCC(=O)NCCNC(=O)COC(=O)CCOc2cc(C)ccc2C)c1	MC4R barr agon 10.6 (no result: NALP1 inh) | MC4R barr ag inactive | MOR DOR agonist inactive
Cc1ccc(C)c(OCCC(=O)OCC(=O)NCc2ccccc2)c1	none (no result: NALP1 inh)
Cn1c(CCCOc2ccc(Cl)cc2Cl)nnc1SCC(=O)Nc1cccc(F)c1	MC4R barr agon 18.8 (no result: UUG fidelity) | MC4R barr ag 9.8 | MOR DOR agonist inactive
Cn1c(CCCOc2ccc(Cl)cc2Cl)nnc1SCC(=O)Nc1ccc(F)c(Cl)c1	none
C=CCn1c(CCCOc2ccc(Cl)cc2Cl)nnc1SCC(=O)Nc1nccs1	MC4R barr agon 9.7 | MC4R barr ag inactive | MOR DOR agonist inactive
C[C@H]1CN([C@@H](C)CO)C(=O)c2cccc(NC(=O)Nc3ccc(C(F)(F)F)cc3)c2O[C@H]1CN(C)S(C)(=O)=O	none (no result: MC4R antagonist, HDAC3 inhib, MC4R barr agon, NALP1 inh, ALR H2O2 inh)
CCCCCCCCCCCCCCCC(=O)NCCO	MC4R barr agon 11.7 (no result: NALP1 inh) | MC4R barr ag inactive | MOR DOR agonist inactive
C#CCCCCCCCCC(=O)NCCCC	none (no result: UUG fidelity)
CC1CCC(C(C)C)C(OC(=O)Cn2c(-c3ccc(Cl)cc3)[n+](C)c3ccccc32)C1 (stereo not drawn)	MC4R barr agon 28.1 (no result: NALP1 inh) | MC4R barr ag inactive | MOR DOR agonist inactive
CC1CCC(C(C)C)C(OC(=O)COC(=O)c2cccn2C)C1 (stereo not drawn)	none
CC1CCC(C(C)C)C(OC(=O)Cn2c(-c3ccc(Br)cc3)[n+](C)c3ccccc32)C1 (stereo not drawn)	MC4R barr agon 11.8 | MC4R barr ag 13.3! | MOR DOR agonist inactive
Cc1ccccc1OCc1n(CC(=O)OC2CC(C)CCC2C(C)C)c2ccccc2[n+]1C (stereo not drawn)	MC4R barr agon 23.2 (no result: UUG fidelity) | MC4R barr ag 41.2 | MOR DOR agonist 27.3
CCOC(=O)Cc1csc(NC(=O)c2sc3nc4ccc(C)cc4cc3c2N)n1	MC4R barr agon 19.4, ALR H2O2 inh 98.5 | MC4R barr ag inactive | MOR DOR agonist inactive
CCOC(=O)Cc1csc(NC(=O)c2cccnc2)n1	none (no result: NALP1 inh)
N#C/C(=C\c1ccc(-c2ccccc2C(=O)O)o1)c1nc2ccccc2[nH]1	none
N#C/C(=C\c1ccc(Sc2ccccc2)o1)c1nc2ccccc2[nH]1	MC4R barr agon 11.9 | MC4R barr ag inactive | MOR DOR agonist inactive
Cc1ccc(-c2nnc(-c3cccc4ccccc34)o2)cc1	none (no result: HDAC3 inhib, NALP1 inh, ALR H2O2 inh)
Clc1ccc(-c2nnc(-c3cccc4ccccc34)o2)cc1	MC4R barr agon 11.1 (no result: HDAC3 inhib, NALP1 inh, ALR H2O2 inh) | MC4R barr ag inactive | MOR DOR agonist inactive
c1ccc(Nc2nnc(-c3cccc4ccccc34)o2)cc1	MC4R barr agon 16.8 | MC4R barr ag inactive | MOR DOR agonist inactive
C[C@H]1CN([C@@H](C)CO)C(=O)c2cccc(NC(=O)c3ccncc3)c2O[C@@H]1CN(C)C(=O)Nc1ccc(C(F)(F)F)cc1	none (no result: MC4R antagonist, HDAC3 inhib, MC4R barr agon, NALP1 inh, ALR H2O2 inh)
C=CCNC(=S)N1CCN(c2ncc(C(F)(F)F)cc2Cl)CC1	none (no result: UUG fidelity)
Cc1cc(C)cc(NC(=S)N2CCN(c3ncc(C(F)(F)F)cc3Cl)CC2)c1	MC4R barr agon 17.5 (no result: UUG fidelity) | MC4R barr ag inactive | MOR DOR agonist inactive
Clc1ccc(C2=Nn3c(nnc3-c3cc(-c4ccccc4)n[nH]3)SC2)cc1	MC4R barr agon 40.7 | MC4R barr ag 22.7 | MOR DOR agonist inactive
C/C(=N\NC(=O)c1ccc(Cl)cc1)c1cccs1	none (no result: HDAC3 inhib, ALR H2O2 inh)
C/C(=N/NC(=O)c1cccs1)c1ccc(NC(=O)COc2ccc(Cl)cc2)cc1	MC4R barr agon 12.2 (no result: NALP1 inh) | MC4R barr ag 12.9 | MOR DOR agonist inactive
Cc1ccc(-c2nn(-c3ccccc3)cc2/C=C/C(=O)Nc2nccs2)cc1	MC4R barr agon 18.8 | MC4R barr ag inactive | MOR DOR agonist inactive
O=C(/C=C/c1cn(-c2ccccc2)nc1-c1ccccc1)Nc1ccc(C(=O)O)cc1	none (no result: ALR H2O2 inh)
O=C(C[C@@H]1C[C@H]2c3cc(NC(=O)C4CCOCC4)ccc3O[C@H]2[C@H](CO)O1)NCc1ccc(Cl)cc1	none (no result: MC4R antagonist, HDAC3 inhib, MC4R barr agon, NALP1 inh, ALR H2O2 inh)
CCOc1ccccc1N1CCN(C(=O)CNC(=O)c2sc3ccccc3c2Cl)CC1	none
COc1cccc(N2CCN(C(=O)CNC(=O)c3sc4ccccc4c3Cl)CC2)c1	MC4R barr agon 69.5 | MC4R barr ag inactive | MOR DOR agonist inactive
CN1C(=O)c2cc(NS(C)(=O)=O)ccc2OC[C@H]2O[C@H](CC(=O)O)CC[C@H]21	none (no result: MC4R antagonist, HDAC3 inhib, MC4R barr agon, NALP1 inh, ALR H2O2 inh)
COc1cccc2sc(N(CCCN(C)C)C(=O)c3sc4ccccc4c3Cl)nc12	MC4R barr agon 17.4 | MC4R barr ag 20.4 | MOR DOR agonist 24.4
COc1ccc(C(O)c2nc(-c3ccc(F)cc3OC)cs2)cc1 (stereo not drawn)	none (no result: HDAC3 inhib, NALP1 inh, ALR H2O2 inh)
COc1cc(F)ccc1-c1csc(C(O)c2ccc(F)cc2)n1 (stereo not drawn)	MC4R barr agon 14.0 (no result: HDAC3 inhib, NALP1 inh, ALR H2O2 inh) | MC4R barr ag inactive | MOR DOR agonist inactive
C=CCn1c(SCC(=O)Nc2ccc(C(=O)OC(C)C)cc2)nnc1-c1cccs1	MC4R barr agon 23.2 | MC4R barr ag inactive | MOR DOR agonist inactive
CCOC(=O)c1ccc(NC(=O)CSc2nnc(-c3cccs3)n2CC)cc1	none
Cc1ccc(-c2csc(N(C)C(=O)c3c(C)nn(-c4ccccc4)c3Cl)n2)cc1	MC4R barr agon 15.7 | MC4R barr ag inactive | MOR DOR agonist inactive
CC(C)C(=O)Nc1ccc2c(c1)C(=O)N(C)[C@@H]1CC[C@H](CC(=O)O)O[C@H]1CO2	none (no result: MC4R antagonist, HDAC3 inhib, MC4R barr agon, NALP1 inh, ALR H2O2 inh)
COc1ccc(-c2sc3ccc(N4CCOCC4)cc3c2C#CC(C)(C)O)cc1	MC4R barr agon 22.7 (no result: NALP1 inh) | MC4R barr ag inactive | MOR DOR agonist inactive
CO[C@H]1CN(C)C(=O)c2ccc(NC(=O)C3CCCC3)cc2OC[C@@H](C)N(CC2CC2)C[C@H]1C	none (no result: MC4R antagonist, HDAC3 inhib, MC4R barr agon, NALP1 inh, ALR H2O2 inh)

Screening data (PubChem BioAssay)
